Experimental data as given in ChEMBL document CHEMBL5316269, “Rational Design of a New RXR Agonist Scaffold Enabling Single-Subtype Preference for RXRα, RXRβ, and RXRγ” (J Med Chem, 2023).

Target: T1, Thyroid hormone receptor alpha (Homo sapiens) (UniProt P10827)
T1 sequence (whole entry): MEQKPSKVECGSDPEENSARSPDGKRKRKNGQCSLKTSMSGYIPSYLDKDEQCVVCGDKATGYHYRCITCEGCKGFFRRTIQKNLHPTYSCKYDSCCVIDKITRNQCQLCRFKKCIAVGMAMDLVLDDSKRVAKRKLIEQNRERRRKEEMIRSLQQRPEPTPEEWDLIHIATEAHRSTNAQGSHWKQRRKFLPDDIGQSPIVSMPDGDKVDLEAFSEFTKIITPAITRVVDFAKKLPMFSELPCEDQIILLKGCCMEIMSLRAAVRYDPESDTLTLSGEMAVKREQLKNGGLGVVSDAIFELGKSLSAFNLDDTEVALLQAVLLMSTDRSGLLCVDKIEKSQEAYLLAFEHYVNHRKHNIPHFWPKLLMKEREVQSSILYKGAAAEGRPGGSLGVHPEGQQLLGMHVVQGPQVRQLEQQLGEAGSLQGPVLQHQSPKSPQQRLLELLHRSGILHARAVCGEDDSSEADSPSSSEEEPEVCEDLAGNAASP
Assay: Agonist activity at human GAL4-fused THRalpha LBD expressed in human HEK293T cells cotransfected with pFR-Luc and pRL-SV40 assessed as increase in luciferase activity at 1 uM incubated for 16 hrs by Dual-Glo luciferase assay relative to control
Type: cell-based

Activity: 1%
SMILES: Cc1cc(COc2ccc(C)c3c2CCC3)ccc1CCC(=O)O
